Conditions: PAMPA

Permeability: 11 ± 1 ×10^−6 cm/s
Structure (SMILES): NC(=O)N1c2ccccc2C=Cc2ccccc21 [Cz, Carbamazepine]

Source: patent publication US20260258087A1, “PHARMACEUTICAL COMPOSITION FOR PREVENTING OR TREATING HEPATITIS B” (GWANGJU INSTITUTE OF SCIENCE AND TECHNOLOGY, priority 2022, published 2026)
